Values quoted from earlier work, collected in patent publication US20090069276A1, “Treatment, prevention and amelioration of pulmonary disorders associated with chemotherapy or radiotherapy with active vitamin D compounds or mimics thereof” (Novacea, Inc., priority 2005, published 2009).

Tested on: cancer patients
Details: Non-Hodgkin's lymphoma, Hochster 2000, cited from earlier work

cyclophosphamide, fludarabine
Patients discontinuing treatment because of pulmonary toxicity (3 of 27 patients): 11%
Patients who developed grade III or IV pulmonary toxicity (cyclophosphamide 600, 750 or 1000 mg/m^2, fludarabine 20 mg/m^2/d): 18%
